A short description of the experiment: Selectivity ratio of EC50 for agonist activity at LXRbeta (unknown origin) transfected in NR1H3 knockout human Hep3B cells co-transfected with LXRE-GFP to EC50 for agonist activity at LXRalpha (unknown origin) transfected in NR1H2 knockout human Hep3B cells co-transfected with LXRE-GFP measured after 48 hrs.

As to `O=C1C(Nc2ccc(N3CCCCC3)cc2)=C(c2ccccc2)C(=O)N1Cc1ccccc1`, the Ratio EC50 was 23.
